Test results from patent US9650358B2 (priority 2013, dated 2017).

Sequences of proteins named here, by UniProt entry; tags and fusion partners are left off.
UniProt P50750, whole entry: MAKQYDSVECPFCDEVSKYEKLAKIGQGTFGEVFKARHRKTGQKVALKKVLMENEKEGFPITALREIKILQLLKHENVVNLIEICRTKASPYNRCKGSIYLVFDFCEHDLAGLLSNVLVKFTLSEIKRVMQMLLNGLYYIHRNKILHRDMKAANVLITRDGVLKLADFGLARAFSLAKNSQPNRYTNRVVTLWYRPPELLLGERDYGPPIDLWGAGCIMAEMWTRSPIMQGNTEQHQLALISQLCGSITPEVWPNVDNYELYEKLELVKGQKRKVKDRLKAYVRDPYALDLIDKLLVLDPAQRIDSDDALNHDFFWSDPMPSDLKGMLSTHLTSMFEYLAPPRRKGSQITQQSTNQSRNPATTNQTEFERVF

Molecular target: CDK9/Cyclin T1 (Homo sapiens (Human), UniProt P50750)
Test: biochemical

O=C(Nc1cc(-c2ccc3ncn(Cc4cncc(F)c4)c3c2)c(Cl)cn1)[C@@H]1CCCNC1 [Example 131, (3R)—N-(5-chloro-4-{1-[(5-fluoropyridin-3-yl)methyl]-1H-benzimidazol-6-yl}pyridin-2-yl)piperidine-3-carboxamide]
IC50: 40 nM
